Results: patent US20100063074A1, “Cancer Treatment Method” (priority 2004, published 2010)

What was measured:
[1] = test system: locally advanced or metastatic transitional cell carcinoma of the urothelial tract; conditions: second-line oral treatment
[2] = test system: tumor cells overexpressing EGFR or erbB2; conditions: Rusnak et al., 2001b; Xia et al., 2002; cited from earlier work

Row | Structure (SMILES) | tolerability (in words) [1] | selectivity for tumor cells overexpressing EGFR or erbB2 [2]
1 | CS(=O)(=O)CCNCc1ccc(-c2ccc3ncnc(Nc4ccc(OCc5cccc(F)c5)c(Cl)c4)c3c2)o1.Cc1ccc(S(=O)(=O)O)cc1 [GW572016F, N-{3-Chloro-4-[(3-fluorobenzyl)oxy]phenyl}-6-[5-({[2-(methanesulphonyl)ethyl]amino}methyl)-2-furyl]-4-quinazolinamine ditosylate monohydrate] | generally well tolerated | 
2 | CS(=O)(=O)CCNCc1ccc(-c2ccc3ncnc(Nc4ccc(OCc5cccc(F)c5)c(Cl)c4)c3c2)o1 [GW572016, N-{3-chloro-4-[(3-fluorobenzyl)oxy]phenyl}-6-[5-({[2-(methanesulphonyl)ethyl]amino}methyl)-2-furyl]-4-quinazolinamine] |  | selectively inhibits tumor cells overexpressing EGFR or erbB2
